# Literature values, collected in publication PMC3669347, “A Multi-System Approach Assessing the Interaction of Anticonvulsants with P-gp” (PLoS ONE, 2013).
# System: hOCT1
# Details: human brain endothelial cells; cited from earlier work
structure (smiles),measurement,value
Nc1nnc(-c2cccc(Cl)c2Cl)c(N)n1 [lamotrigine],Substrate for the influx transporter hOCT1,substrate
